HCMV UL50-53 inh: cytomegalovirus nuclear egress complex inhibition; HTRF UL50-UL53 interaction, normalized percent inhibition; inhibition, % (test concentration not listed); actives 0.15% (n = 190,000); in the data active = inhibition above about 27%, passing the limit was not always enough
GIV-Gai inh: inhibitors of GIV GBA-motif binding to rat Galpha-i3; percent of control (FP), % (concentration not given with the values); AID 1224905; Galpha-i3/FITC-GIV peptide fluorescence polarization, 90 min; stronger effect = lower value; scaled: aluminum fluoride 0%, vehicle 100%; 210,000 compounds, 0.42% hits; P08753;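 active means replicate mean at 85% of control or lower, very high polarization wells dropped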;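 further: wells of about 15 µL received 100 nL stock; the first replicate is given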
GIV-Gai FP conf: confirmation of inhibitors of GIV binding to rat Galpha-i3; shares compounds with GIV-Gai inh; FITC-GIV peptide binding to Galphai3, fluorescence polarization; hits give low values; fluorescence polarization, mP at 100 µM; actives 38% (n = 580); AID 1259350;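 active = inhibition score of 15 or more, meaning 100 minus mean polarization as percent of control over three replicates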;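 also: lower mP means peptide displaced from Galphai3 so more inhibition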
GIV Gai AS conf: confirmation of inhibitors of GIV binding to human Galpha-i3; actives 39% (n = 580); AlphaScreen counts at 100 µM; AlphaScreen Galphai3-GIV binding, purified proteins, 90 min; hits give low values; shares compounds with GIV-Gai inh;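 active = inhibition score at or above a set limit, where the score is 100 minus the three-replicate mean percent of control signal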
Numbers stand for hits; - = inactive; . = no result. Sampled rows, rich in hits. Any-hit rate of the full collection: about 0.43%.

SMILES	HCMV UL50-53 inh	GIV-Gai inh	GIV-Gai FP conf	GIV Gai AS conf
COc1ccc(NC(=O)CCc2c(C)nc3c(-c4ccc(F)cc4)c(C)nn3c2C)c(OC)c1	-	-	-	-
COc1ccc(OC)c(NC(=O)CCc2c(C)nc3c(-c4ccccc4)c(C)nn3c2C)c1	-	-	.	.
CC1=NN(c2ccc(Cl)c(C(=O)O)c2)C(=O)/C1=C\c1cnn(-c2ccc(C)c(C)c2)c1	-	-	.	.
O=C(Nc1ccc(Br)cc1F)C1Oc2ccccc2NC1=O (stereo not drawn)	.	-	.	.
Cc1cc(C(F)(F)F)[nH]c(=O)c1C#N	-	.	.	.
Cc1cc(C(F)(F)F)c(C#N)c(=O)[nH]1	.	40	-	-
C/C(=N\OC(=O)c1cccc(C(F)(F)F)c1)c1csc(-c2ccno2)n1	-	-	.	.
Cc1ccccc1-n1nnnc1C1(N)CCCC1	.	-	.	.
Cc1ccccc1-c1nn2c(=O)cc(N3CCN(C(=O)Nc4cccc(Cl)c4C)CC3)nc2s1	-	-	.	.
Cc1ccc(NC(=O)N2CCN(c3cc(=O)n4nc(-c5ccccc5C)sc4n3)CC2)c(Cl)c1	-	-	-	-
CC(/C=N/NC(=O)c1nnn(-c2nonc2N)c1CN1CCCCCC1)c1ccccc1 (stereo not drawn)	.	-	.	.
Cc1ccc(C)n1-c1nnc(N2CCCC(C(=O)O)C2)s1 (stereo not drawn)	.	-	-	7556
Cc1cccc(NC(=O)C2CCCN(c3nnc(-n4c(C)ccc4C)s3)C2)c1C (stereo not drawn)	-	-	.	.
Cc1nc(N2CCN(c3ccccn3)CC2)nc2oc(-c3ccccc3)nc12	-	-	-	-
Cc1nc(N2CCCC2)nc2oc(-c3ccccc3)nc12	-	-	.	.
CN(C)c1ccc(-c2nnc3sc(-c4ccncc4)nn23)cc1	-	-	.	.
CN(C)c1ccc(-c2nnc3sc(-c4cccnc4)nn23)cc1	-	83	-	-
COc1ccc(-c2nc(N3CCC(C)CC3)nc3nn4c(C)cc(C)nc4c23)cc1	-	-	-	-
Cc1cc(C)n2nc3nc(N4CCCC4)nc(-c4ccccc4)c3c2n1	-	-	.	.
O=C1c2cccnc2C(Nc2ccc(Br)cc2)N1C1CCCCC1 (stereo not drawn)	-	-	.	.
COc1ccc(-c2c(C#N)c(N)n3c(nc4ccccc43)c2C#N)cc1O	.	-	.	.
COc1ccc(-c2c(C#N)c(N)n3c(nc4ccccc43)c2C#N)cc1OC	-	83	-	-
Cc1cccc(C)c1NC(=O)CSc1nc2c(c(=O)[nH]1)CN(Cc1ccccc1)CC2	-	-	.	.
CN1CCN(C2=NC(C(=O)Nc3ccccc3)CC(=O)N2)CC1 (stereo not drawn)	-	-	.	.
O=C1CC(C(=O)Nc2ccccc2)N=C(N2CCc3ccccc3C2)N1 (stereo not drawn)	-	81	-	-
SMILES	HCMV UL50-53 inh	GIV-Gai inh	GIV-Gai FP conf	GIV Gai AS conf
O=C1/C(=C/c2cccnc2)CCCC/C1=C\c1cccnc1	-	.	.	.
O=C1/C(=C/c2ccncc2)CCC/C1=C\c1ccncc1	-	51	51	18754
Cc1ccc(NC(=O)C2CCN(c3ncccn3)CC2)cc1F	-	-	.	.
O=C(Nc1cccc(F)c1F)C1CCN(c2ncccn2)CC1	-	-	-	-
Fc1ccc(Cn2c(SCc3cccc(Cl)c3)nc3ccncc32)cc1	-	-	.	.
Cc1ccc2c(Sc3ccc(Cl)cc3)c(C(=O)NC(C)C)[nH]c2c1	-	57	-	-
CCC(C)NC(=O)c1[nH]c2cc(C)ccc2c1Sc1ccc(Cl)cc1 (stereo not drawn)	-	-	.	.
CCOC(=O)C(CCc1ccccc1)NC1CSC(c2cccs2)CN(CC(=O)O)C1=O (stereo not drawn)	-	.	.	.
O=C(c1ccccc1)c1ccccn1	-	77	-	-
NC(=O)c1ccccn1	-	.	.	.
O=c1oc2c(ccc3c(O)cccc32)c2c1CCCC2	-	-	.	.
C=CCn1c(=O)sc2cc(Br)ccc21	-	-	.	.
Cc1nnsc1C(=O)N1CCc2[nH]c3ccc(F)cc3c2C1	-	-	.	.
C=CCNC(=O)N1CCc2[nH]c3ccc(F)cc3c2C1	-	85	59	-
CCCCn1c(-c2ccc(OCC)cc2)cnc1NCc1cccc(Cl)c1	.	-	.	.
Cc1ccc(NC(=O)c2sc3nc4c(c(-c5ccco5)c3c2N)CCCC4)cc1	.	-	.	.
Cc1ccc(NC(=O)c2sc3nc4c(c(-c5ccco5)c3c2N)CCC4)cc1	.	76	-	-
Cc1ccc(-c2csc(CO)n2)cc1	-	-	.	.
Cc1c(Cl)cccc1NC(=O)c1cc(S(=O)(=O)N2CCN(Cc3ccc4c(c3)OCO4)CC2)ccc1F	.	-	.	.
CC1=C(C)C(=O)c2ccccc2C1=O	-	-	.	.
CC1(C)CCC2=C(O1)c1ccccc1C(=O)C2=O	-	54	54	-
O=C1NC(=S)NC(=O)C1=Cc1cn(Cc2c(F)cccc2Cl)c2ccccc12	-	-	.	.
N#Cc1ccsc1NC(=O)c1coc2ccccc2c1=O	-	.	.	.
O=S(=O)(c1cccc2nsnc12)N1CCC(Cc2ccccc2)CC1	.	-	.	.
O=S(=O)(c1cccc2nonc12)N1CCC(Cc2ccccc2)CC1	.	-	-	-
SMILES	HCMV UL50-53 inh	GIV-Gai inh	GIV-Gai FP conf	GIV Gai AS conf
COc1ccccc1-n1nnc(C(=O)Nc2ccc(S(N)(=O)=O)cc2)c1C	-	-	.	.
COCCn1c(C)nnc1SCC1CCCO1 (stereo not drawn)	-	-	.	.
CCn1c(CCc2ccccc2)nnc1SCC(=O)Nc1cccc(OC)c1	-	-	.	.
CC(C)(O)CC1(CO)CCCCC1	-	-	-	-
COC(=O)CNC(=O)c1cn(-c2ccccc2)nc1-c1ccc(C)cc1	-	.	.	.
COc1ccccc1NC(=O)CSc1nc2c(cc1C#N)CCCC2	-	-	.	.
CCOCCOC(=O)C1=C(C)NC2(O)c3ccccc3C(=O)C12O (stereo not drawn)	.	-	.	.
CCOC(=O)C1=C(C)OC2(O)c3ccccc3C(=O)C12O (stereo not drawn)	-	80	-	-
CCOc1ccc(NC(=O)CCCc2nc(-c3cc4ccc(C)cc4[nH]c3=O)no2)cc1	-	-	.	.
COC(=O)c1[nH]c(C(=O)OC)c(O)c1O	-	59	-	-
COC(=O)c1[nH]c(C)c(C(=O)OC)c1C	-	.	.	.
CC1(C)N2CC3([N+](=O)[O-])CN1CC([N+](=O)[O-])(C2)C3(C)C	.	-	-	-
CC1(C)C2([N+](=O)[O-])CN3CC1([N+](=O)[O-])CN(C2)C3c1ccc(O)cc1 (stereo not drawn)	.	-	.	.
O=C(Oc1cccc(Br)c1)c1cc(-c2ccccc2)on1	-	-	.	.
Cc1ccc(C)n1-c1ccc(SCC(=O)O)cc1	56	6.4	17	2022
COc1ccc(SCC(=O)O)cc1	-	.	.	.
CCn1nnc2cc(-c3noc(-c4cnccn4)n3)ccc21	.	-	.	.
Cc1nc2cc(-c3noc(-c4cnccn4)n3)ccc2n(C(C)C)c1=O	-	-	-	-
CSc1nnc(Cc2ccccc2)n1-c1ccc(C)cc1	-	-	.	.
CCCSc1nnc2c(n1)OC(c1cccs1)Nc1ccccc1-2 (stereo not drawn)	-	-	.	.
COc1ccc(C2Nc3ccccc3-c3nnc(SC)nc3O2)cc1C (stereo not drawn)	-	36	-	-
CSc1nnc2c(n1)OC(c1cccs1)Nc1ccccc1-2 (stereo not drawn)	-	53	-	27085

Screening data deposited in PubChem BioAssay by ICCB-Longwood Screening Facility, Harvard Medical School.
